Literature values as cited in paper PMC8265689 (Journal of the American Chemical Society, 2021).

Assays:
[1] = In CH3CN, λirr = 500 nm; L = imatinib; cited from earlier work
[2] = In MeOH, λirr = 460 nm; L = imatinib; cited from earlier work

## [Ru(tpy)(Me2dppn)(imatinib)]^2+ [[Ru(tpy)(Me2dppn)(L)]^2+]
[1]
  Quantum yield of ligand exchange (ΦLE): 0.073(1)
[2]
  Quantum yield of singlet oxygen production (ΦΔ): 0.57(7)
